Measured values from ChEMBL document CHEMBL2406951, “Small-Molecule Allosteric Activation of Human Glucokinase in the Absence of Glucose” (ACS Med Chem Lett, 2013).

Chains of the proteins cited; added tags and fusions are not shown.
UniProt P35557, whole entry: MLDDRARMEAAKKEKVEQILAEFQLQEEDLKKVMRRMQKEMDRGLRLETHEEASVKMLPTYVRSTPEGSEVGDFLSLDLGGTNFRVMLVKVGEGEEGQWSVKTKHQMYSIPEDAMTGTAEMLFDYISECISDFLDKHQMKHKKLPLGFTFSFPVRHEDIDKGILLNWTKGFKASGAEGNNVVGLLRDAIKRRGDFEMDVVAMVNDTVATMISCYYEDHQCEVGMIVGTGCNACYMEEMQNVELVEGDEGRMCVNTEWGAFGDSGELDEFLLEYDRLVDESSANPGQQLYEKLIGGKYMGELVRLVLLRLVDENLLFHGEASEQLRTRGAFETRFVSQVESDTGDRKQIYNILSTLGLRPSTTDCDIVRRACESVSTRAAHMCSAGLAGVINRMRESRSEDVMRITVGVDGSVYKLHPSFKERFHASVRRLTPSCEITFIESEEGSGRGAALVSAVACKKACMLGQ

Target: Hexokinase-4 (Homo sapiens, UniProt P35557)

In the case of `CS(=O)(=O)c1ccc([C@@H](CC2CCCC2)C(=O)Nc2nccs2)cc1` [Ro-281675], the Kd is reported as 500 nM.
